PubChem BioAssay AID881 (National Center for Advancing Translational Sciences (NCATS), 2007)
This is a selection; strong and weak results do not stand in their true shares. Activity calls are given as the source filed them. The call rests on the fitted dose curve; in most records, active means well fitted inhibition curve with a large enough effect; inconclusive means small, poorly fitted or top-dose-only effect; inactive means no such curve, though single readings can be large or run the other way.

Chains of the proteins cited; added tags and fusions are not shown.
UniProt O15296, whole entry: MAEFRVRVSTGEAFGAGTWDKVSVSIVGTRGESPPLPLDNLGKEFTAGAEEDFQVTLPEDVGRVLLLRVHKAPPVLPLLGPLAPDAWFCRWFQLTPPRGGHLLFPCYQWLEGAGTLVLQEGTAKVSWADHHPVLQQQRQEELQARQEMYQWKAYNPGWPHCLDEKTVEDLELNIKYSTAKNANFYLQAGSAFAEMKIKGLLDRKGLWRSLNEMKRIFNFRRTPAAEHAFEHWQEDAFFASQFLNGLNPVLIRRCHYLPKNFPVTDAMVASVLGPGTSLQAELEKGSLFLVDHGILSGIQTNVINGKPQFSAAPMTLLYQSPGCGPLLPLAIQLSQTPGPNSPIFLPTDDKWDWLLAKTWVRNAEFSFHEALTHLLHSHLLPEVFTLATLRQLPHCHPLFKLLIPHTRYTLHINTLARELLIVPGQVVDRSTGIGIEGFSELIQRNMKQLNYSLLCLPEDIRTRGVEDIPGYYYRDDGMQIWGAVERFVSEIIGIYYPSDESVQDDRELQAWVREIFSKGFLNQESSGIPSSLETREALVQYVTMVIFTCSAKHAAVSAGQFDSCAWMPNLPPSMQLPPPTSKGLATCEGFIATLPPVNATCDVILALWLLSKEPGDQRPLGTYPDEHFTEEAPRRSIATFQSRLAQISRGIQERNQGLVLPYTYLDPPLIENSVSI

Target: Polyunsaturated fatty acid lipoxygenase ALOX15B (Homo sapiens) (UniProt O15296)
Experiment: qHTS Assay for Inhibitors of 15-hLO-2 (15-human lipoxygenase 2); further: nearly all actives have a fitted effect of over 60% in size
Conditions: purified 15hLO-2, xylenol orange hydroperoxide absorbance; at 57.1 µM (top of the series)
Text: Assay Overview: NIH Molecular Libraries Screening Centers Network [MLSCN] NIH Chemical Genomics Center [NCGC] MLSCN Grant: MH081283-01A1 PI Name: Holman, T.R., University of California, Santa Cruz Human lipoxygenase 15hLO-2 is a member of the closely related lipoxygenase family of enzymes which catalyze the site-specific oxidation of arachidonic acid to various hormone precursor molecules and as such is a candidate for drug development in a variety of disease areas, such as cancer and inflammation. Inhibition of 15hLO-2 activity was screened by utilizing arachidonic acid as a substrate. The extent of hydroperoxide product formation was measured by a secondary chromogenic reaction in which xylenol orange (XO, Sigma-Aldrich, cat. number 39,818-7) reacts with the ferric ions produced from the reaction between the hydroperoxide and ferrous ions. The Fe(III)-XO complex is characterized with red-shifted absorbance at 560 nm. A purified preparation of human 15hLO-2 was supplied by Professor Ted Holman, University of California, Santa Cruz.
Assay Protocol: Buffer: 25 mM Hepes pH 7.5, 0.01% Triton X-100. Reagents/Controls: Buffer in columns 3 and 4 as negative control (no enzyme). […] The absorbance at 405 and 573 nm were measured using ViewLux (Perkin-Elmer) High-throughput CCD imager and absorbance protocol settings. The 573-to-405 absorbance ratio was used to compute reaction progress.
On the % scale 0 is the no-effect control and ±100 the full control effect.

For `CN(CCCl)CCCl`, which activity change, negative = inhibition is on record?
Its activity change, negative = inhibition is inactive: -7.52%.

How did the activity change, negative = inhibition turn out when `O=[N+]([O-])C(Cl)(Cl)Cl` was run?
Its activity change, negative = inhibition is inactive: -2.95%.
